Literature values as cited in patent US8445474B2 (Knopp Neurosciences, Inc., priority 2006, dated 2013).

Test system: human subjects
Settings: Mirapex product insert; cited from earlier work

CCCN[C@H]1CCc2nc(N)sc2C1 [S(−) pramipexole]
maximally tolerated dose for humans: 4.5 mg/day
